Experimental data published in ChEMBL document CHEMBL1135196, “4-Aminoarylguanidine and 4-aminobenzamidine derivatives as potent and selective urokinase-type plasminogen activator inhibitors” (Bioorg Med Chem Lett, 2002).

Target: Urokinase-type plasminogen activator (Homo sapiens, UniProt P00749)

Structure (SMILES): N=C(N)c1ccc(NC(=O)c2cc(Br)ccc2O)cc1
- Ki: 8 µM
